From publication PMC3937304, “The Secreted Triose Phosphate Isomerase of Brugia malayi Is Required to Sustain Microfilaria Production In Vivo” (PLoS Pathogens, 2014) come the findings set out here.

The Km is the concentration of substrate that gives half-maximal velocity.

Substrate in the series: O=C(CO)COP(=O)(O)O
Kind of series: purified protein. The format is biochemical, Oryctolagus cuniculus. Conditions: DHAP to G3P direction, 100 mM TEA-HCl pH 7.6, 1 mM EDTA, 1 mM NAD+, 5 mM disodium hydrogen arsenate, 25 °C, 0.16-10 mM DHAP.

B1: native rabbit TPI (Oryctolagus cuniculus) (protein)
chain: APSRKFFVGGNWKMNGRKKNLGELITTLNAAKVPADTEVVCAPPTAYIDFARQKLDPKIAVAAQNCYKVTNGAFTGEISPGMIKDCGATWVVLGHSERRHVFGESDELIGQKVAHALSEGLGVIACIGEKLDEREAGITEKVVFEQTKVIADNVKDWSKVVLAYEPVWAIGTGKTATPQQAQEVHEKLRGWLKSNVSDAVAQSTRIIYGGSVTGATCKELASQPDVDGFLVGGASLKPEFVDIINAKQ
notes: native commercial enzyme (Sigma), untagged
As to B1, the Km worked out at 1.732 mM.
